{"source": "ChEMBL document CHEMBL5512690", "about": "“Identification and Validation of PKR as a Direct Target for the Novel Sulfonamide-Substituted Tetrahydroquinoline Nonselective Inhibitor of the NLRP3 Inflammasome” (J Med Chem, 2024)", "key": {"[1]": {"assay": "Cytotoxicity against human differentiated THP-M cells derived PMA induced THP-1 cells measured after 72 hrs by MTT assay"}, "in vivo [2]": {"assay": "in vivo", "conditions": "Sprague-Dawley, rat, po"}, "in vivo [3]": {"assay": "in vivo", "conditions": "Sprague-Dawley, rat, po", "remark": "listed apart in the source"}, "in vivo [4]": {"assay": "in vivo", "conditions": "ICR, mouse, brain, ip, 20 mg/kg"}, "in vivo [5]": {"assay": "in vivo", "conditions": "ICR, mouse, brain, ip, 20 mg/kg", "remark": "listed apart in the source"}, "in vivo [6]": {"assay": "in vivo", "conditions": "ICR, mouse, plasma, ip, 20 mg/kg"}, "in vivo [7]": {"assay": "in vivo", "conditions": "ICR, mouse, plasma, ip, 20 mg/kg", "remark": "listed apart in the source"}, "in vivo [8]": {"assay": "in vivo", "conditions": "ICR, mouse, brain/plasma, ip, 20 mg/kg"}, "in vivo [9]": {"assay": "in vivo", "conditions": "ICR, mouse, brain/plasma, ip, 20 mg/kg", "remark": "listed apart in the source"}, "in vitro": {"assay": "in vitro", "conditions": "human, HMC3 cells"}}, "data": [{"smiles": "CS(=O)(=O)N1CCCc2ccc(NS(=O)(=O)c3ccc(-c4ccccc4)cc3)cc21", "values": [{"measurement": "CC50", "setting": "[1]", "result": "> 100", "unit": "µM"}, {"measurement": "Tmax at 24 h", "setting": "in vivo [2]", "result": "~0.8", "unit": "h"}, {"measurement": "half-life at 24 h", "setting": "in vivo [3]", "result": "~5", "unit": "h"}, {"measurement": "concentration at 10 min", "setting": "in vivo [4]", "result": 1340, "unit": "ng/g"}, {"measurement": "concentration at 40 min", "setting": "in vivo [5]", "result": 1110, "unit": "ng/g"}, {"measurement": "concentration at 10 min", "setting": "in vivo [6]", "result": 5030, "unit": "ng/mL"}, {"measurement": "concentration at 40 min", "setting": "in vivo [7]", "result": 2980, "unit": "ng/mL"}, {"measurement": "Kp at 10 min", "setting": "in vivo [8]", "result": 0.27}, {"measurement": "Kp at 40 min", "setting": "in vivo [9]", "result": 0.37}, {"measurement": "CC50 at 72 h", "setting": "in vitro", "result": 88.8, "unit": "µM"}]}]}
